{"source": "patent US8022075B2", "about": "“Diagnostic and remedy for disease caused by amyloid aggregation and/or deposition” (Fujifilm Ri Pharma Co., Ltd., priority 2005, dated 2011)", "origin": "cited, not measured here", "conditions": "standard substances of liposolubility; values reported in the literature; cited from earlier work"}
{"smiles": "c1ccc2ccccc2c1", "note": "[Naphtalene]", "values": [{"measurement": "LogD7.4", "value": 3.37}]}
